pEC50, pIC50: −log10 of the molar value.
Tests used:
[1] = system: lactate production, HEK293T cells; experiment: Lactate production assay (HEK293T); conditions: Supplementary Table 2
[2] = molecular target: LDHA-86b (Homo sapiens, UniProt P00338); experiment: SplitLuc CETSA of LDHA-86b (HEK293T); format: cell-based; conditions: Supplementary Table 2, 63.5 °C for […] (Fig. 5)
[3] = molecular target: human lactate dehydrogenase 5 (Homo sapiens, UniProt P00338); experiment: LDHA biochemical (enzymatic) assay; conditions: Supplementary Table 2; for pIC50: read-out: Biochemical Assay IC50

With `O=C1C[C@@](c2ccc(N3CCOCC3)cc2)(c2ccsc2)NC(=O)C1Sc1ccccc1Cl` (stereo partly shown) the “Lactate production (HEK293T) Efficacy” value [1] was -52.361, the pIC50 ([1]; read-out: Lactate production (HEK293T) IC50) was 5.47 and the “CETSA LDHA-86b (HEK293T) Efficacy” value [2] was 148.4. For the same molecule, the “Biochemical Assay Efficacy” value [3] was -99.4.
In the case of `Cc1nc2ccc(NC(=O)CCNC(=O)CCCc3ccc(CC(C(=O)O)C(=O)O)cc3)cc2s1`, the “CETSA LDHA-86b (HEK293T) Efficacy” value [2] was 49.3, the pEC50 ([2]; read-out: CETSA LDHA-86b (HEK293T) EC50) was 4.78 and the “Biochemical Assay Efficacy” value [3] was -85.9. It also gave a pIC50 [3] of 5.92.
For `O=C(O)c1csc(-n2nc(-c3ccccc3)cc2C(F)(F)F)n1`, the “Biochemical Assay Efficacy” value [3] was -37.3 and the pIC50 [3] was 4.47.

Reference: paper PMC6013488, “A widely-applicable high-throughput cellular thermal shift assay (CETSA) using split Nano Luciferase” (Scientific Reports, 2018)
